Source: BindingDB's records for 26145820

Sequences of proteins named here, by UniProt entry; tags and fusion partners are left off. Residues count along the entry.
UniProt P40881, 35-247 limits assumed: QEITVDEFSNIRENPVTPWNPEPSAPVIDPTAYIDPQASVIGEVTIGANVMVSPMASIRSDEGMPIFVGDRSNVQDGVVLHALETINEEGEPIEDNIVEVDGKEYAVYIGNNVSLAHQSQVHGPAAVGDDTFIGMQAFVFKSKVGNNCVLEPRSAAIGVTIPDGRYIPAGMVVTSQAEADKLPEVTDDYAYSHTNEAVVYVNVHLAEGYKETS

Key:
Carbonic anhydrase = Carbonic anhydrase (Methanosarcina thermophila (strain ATCC 43570 / DSM 1825 / OCM 12 / VKM B-1830 / TM-1), UniProt P40881); test: Inhibition of archaeon Methanosarcina thermophila gamma-CA after 15 mins by stopped-flow/Co2 hydration assay
Carbonic anhydrase 2 = Carbonic anhydrase 2 (Homo sapiens, UniProt P00918); test: Inhibition of human CA2 after 15 mins by stopped-flow/Co2 hydration assay

SMILES	pKi (Carbonic anhydrase)	pKi (Carbonic anhydrase 2)
[N-]=[N+]=[N-]	2.24	
[Na+]		1.59 and 1.20

pKi: −log10 of the molar value. Several values for one entry are separate records, joined by “and”; a condition that tells them apart may be missing. Equal entries are not always repeated.
